Assay results taken from patent US20030032096A1 (US Dept. of Health and Human Services, published 2003).

Sequences of proteins named here, by UniProt entry; tags and fusion partners are left off. Residues count along the entry.
UniProt P49190, 25-550: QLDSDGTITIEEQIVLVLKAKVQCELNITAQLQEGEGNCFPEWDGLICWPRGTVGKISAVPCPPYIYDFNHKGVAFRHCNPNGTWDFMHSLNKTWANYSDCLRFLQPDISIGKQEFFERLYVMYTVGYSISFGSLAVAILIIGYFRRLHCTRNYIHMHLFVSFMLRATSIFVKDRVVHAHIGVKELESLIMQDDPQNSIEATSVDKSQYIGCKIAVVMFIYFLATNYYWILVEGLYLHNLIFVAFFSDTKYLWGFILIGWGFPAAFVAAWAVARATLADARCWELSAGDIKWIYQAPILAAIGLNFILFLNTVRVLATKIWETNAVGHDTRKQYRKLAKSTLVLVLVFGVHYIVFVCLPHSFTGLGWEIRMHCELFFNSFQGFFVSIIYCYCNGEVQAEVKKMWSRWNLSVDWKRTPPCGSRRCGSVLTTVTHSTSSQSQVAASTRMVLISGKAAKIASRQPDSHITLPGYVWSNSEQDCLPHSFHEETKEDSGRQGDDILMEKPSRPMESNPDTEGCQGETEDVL
UniProt P70555, 25-546: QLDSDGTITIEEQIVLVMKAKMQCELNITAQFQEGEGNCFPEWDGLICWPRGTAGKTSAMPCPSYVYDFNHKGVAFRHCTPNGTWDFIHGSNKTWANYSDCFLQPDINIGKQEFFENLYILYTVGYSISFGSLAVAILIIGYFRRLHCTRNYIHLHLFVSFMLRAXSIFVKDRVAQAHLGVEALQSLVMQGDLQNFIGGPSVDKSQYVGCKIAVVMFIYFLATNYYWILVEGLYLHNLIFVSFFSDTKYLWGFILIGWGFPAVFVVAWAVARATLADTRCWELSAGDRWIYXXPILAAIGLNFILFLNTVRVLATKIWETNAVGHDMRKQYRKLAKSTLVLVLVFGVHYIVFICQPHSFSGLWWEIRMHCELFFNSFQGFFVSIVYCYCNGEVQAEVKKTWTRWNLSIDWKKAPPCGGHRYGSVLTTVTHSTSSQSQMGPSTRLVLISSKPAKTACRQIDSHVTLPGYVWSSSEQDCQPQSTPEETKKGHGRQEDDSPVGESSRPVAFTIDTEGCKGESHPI

Columns and labels:
[1] = biological target: human parathyroid hormone type 2 receptor (PTH2 receptor) (human) (UniProt P49190); test: cell-based or functional assay
rat PTH2 receptor = rat PTH2 receptor (rat, UniProt P70555 25-546); test: cell-based or functional assay

-logEC50 (cAMP accumulation) [1]: 6.03
EC50 (cAMP accumulation) [1]: 930 nM
-logEC50 (cAMP accumulation) (rat PTH2 receptor): 7.17
EC50 (cAMP accumulation) (rat PTH2 receptor): 68 nM
Substance: PTHrP(1-34) (from UniProt P12272 37-70) (peptide)
